# Target: MDR (Rattus norvegicus, UniProt P16257)
# The chains behind the UniProt entries cited, without tags or fusion partners.
# UniProt P16257, whole entry: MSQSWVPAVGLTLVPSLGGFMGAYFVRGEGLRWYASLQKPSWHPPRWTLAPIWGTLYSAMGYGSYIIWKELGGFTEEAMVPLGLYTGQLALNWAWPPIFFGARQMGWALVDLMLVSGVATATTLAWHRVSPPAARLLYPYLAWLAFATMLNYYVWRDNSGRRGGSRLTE
# Test: MDR receptor binding assay ([3H]PK11195 displacement)
# Details: read-out: MDR IC50; 50% inhibition of [3H]PK11195 (2 nM) binding; crude mitochondria fraction from rat cerebral cortex; 4° C., 90 minutes
compound,measurement,value
COc1ccccc1CN(C(C)=O)c1ccc(C)cc1Oc1ccccc1,IC50,0.87 nM
